Results reported in patent publication US9018160B2, “Peptide tyrosine tyrosine analogues” (Imperial Innovations Limited, priority 2010, dated 2015).

Columns and labels:
Format in all cases: in vivo
[1] = Acute feeding studies in mice; conditions: 50 nmol/kg subcutaneous
Method: Male C57BL/6 mice (Harlan) were used for all mouse experiments. Male Wistar rats (Charles River) were used for all rat experiments.
Mice were individually housed in IVC cages. Animals were randomised into treatment groups, with stratification by body weight. Mice were fasted overnight (16 hrs) prior to peptide or vehicle administration. All peptide solutions were prepared freshly, immediately prior to administration. The vehicle used for all studies was 5% v/v water and 95% v/v sodium chloride (0.9% w/v). Peptide and vehicle were administered by subcutaneous injection, with dosage corrected for bodyweight. The maximal injection volume was 100 μl. Vehicle or peptide was administered at 09:00 and animals were returned to their home cage with a known amount of food. Food intake was measured at 1, 2, 4, 8 and 24 hours post injection. All statistics are calculated using a one-way ANOVA with Dunnett's post-test or one-way ANOVA with Bonferroni post-test.
Mice were injected with the Analogue No. 15 (1000 nmol/kg) having the sequence
Mice were injected with Analogue No. 15 (5000 nmol/kg) having the sequence

[2] = Feeding study in diet induced obese mice (Example 9); conditions: DIO mice, 300 nmol/kg subcutaneous once daily, 51 days, 1 zinc ion per peptide molecule
Method: 13 weeks prior to the start of the study, diet induced obese (DIO) mice were obtained by feeding C57BL/6 mice a high fat diet (60 kcal % fat). This diet was used throughout the study. […] Animals were randomized into treatment groups (n=7-8), with stratification by body weight.
at 300 nmol/kg, and with 1 zinc ion (as ZnCl2) per peptide molecule. Injection volume was […] for all treatment groups and mice were dosed for 51 days, at 16:00 hrs. Mice were fed 60 minutes after injection and had access to food until 07:30 hrs the following day when food was weighed and removed. Results

[3] = Rat pharmacokinetics, comparison with and without Zn2+ (Example 12); conditions: rats, subcutaneous 1 mg/ml, zinc-free composition, FIG. 27

- time of peak of plasma PYY 3-36 NH2 [3]: 10 to 15 min
SMILES: CC[C@H](C)[C@H](N)C(=O)N[C@@H](CCCCN)C(=O)N1CCC[C@H]1C(=O)N[C@@H](CCC(=O)O)C(=O)N[C@@H](C)C(=O)N1CCC[C@H]1C(=O)NCC(=O)N[C@@H](CCC(=O)O)C(=O)N[C@@H](CC(=O)O)C(=O)N[C@@H](C)C(=O)N[C@@H](CO)C(=O)N1CCC[C@H]1C(=O)N[C@@H](CCC(=O)O)C(=O)N[C@@H](CCC(=O)O)C(=O)N[C@@H](CC(C)C)C(=O)N[C@@H](CC(N)=O)C(=O)N[C@@H](CCCNC(=N)N)C(=O)N[C@@H](Cc1ccc(O)cc1)C(=O)N[C@@H](Cc1ccc(O)cc1)C(=O)N[C@@H](C)C(=O)N[C@@H](CO)C(=O)N[C@@H](CC(C)C)C(=O)N[C@@H](CCCNC(=N)N)C(=O)N[C@@H](Cc1c[nH]cn1)C(=O)N[C@@H](Cc1ccc(O)cc1)C(=O)N[C@@H](CC(C)C)C(=O)N[C@@H](CC(N)=O)C(=O)N[C@@H](CC(C)C)C(=O)N[C@H](C(=O)N[C@H](C(=O)N[C@@H](CCCNC(=N)N)C(=O)N[C@@H](CCC(N)=O)C(=O)N[C@@H](CCCNC(=N)N)C(=O)N[C@@H](Cc1ccc(O)cc1)C(N)=O)[C@@H](C)O)C(C)C [PYY 3-36 NH2, reference compound]
- food intake compared with saline ([1]; over 24 hours, FIG. 2): reduce food intake compared with saline
- time until which food intake is significantly reduced ([1]; relative to saline, FIGS. 5 and 6): approximately 4 hours
- effect on mean body weight compared to saline ([2]; FIGS. 10 and 11): no sustained effect
- cumulative food intake compared to saline ([2]; FIGS. 12 and 13): no sustained effect
